# Measured affinities in a library of Ab-14 heavy chain variants

The measurements come from Engelhart et al. 2022 (doi:10.1038/s41597-022-01779-4) through the FLAb antibody collection.

Antigen: PDVDLGDISGINAS, a 14-residue peptide of the SARS-CoV-2 spike HR2 region.

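Phage display of a naive human antibody library on the peptide gave the parent. Library AAYL49 holds single substitutions and randomly drawn double and triple substitutions in the CDRs. AlphaSeq pools MATa yeast showing the antibodies with MATalpha yeast showing the peptide. Mating (16 h, 30 °C) was followed by selection of diploids and sequencing of their barcodes. Each replicate has its own calibration line, from reference interactions of the BCL2 family. Mating was done three times.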

Ab-14 is the parent antibody, in scFv form: VH, then a (GGGGS)3 linker, then VL. The light chain is unchanged in all variants.
VH: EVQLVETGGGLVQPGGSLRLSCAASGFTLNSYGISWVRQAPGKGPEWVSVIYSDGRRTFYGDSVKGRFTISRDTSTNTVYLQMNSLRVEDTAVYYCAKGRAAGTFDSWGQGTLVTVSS
VL: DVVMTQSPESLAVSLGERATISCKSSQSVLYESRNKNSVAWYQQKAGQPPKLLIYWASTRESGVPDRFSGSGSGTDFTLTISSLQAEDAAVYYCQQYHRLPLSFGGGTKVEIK

Variants are written as CDR1, CDR2 and CDR3 of the heavy chain (limits as in the source). Parent: GFTLNSYGIS, VIYSDGRRTFYGDSVK, GRAAGTFDS.
All variants listed here change T28 of the VH, counted from its first residue.
The read-out is the apparent dissociation constant on a log10 scale (nM): the lower, the stronger.
Averages over replicates are reported, and they cover detected replicates only.
An entry "ND" has no value in the source: the pair was not observed among the diploids in that replicate. This suggests poor binding but is not conclusive.

| CDR-H1 | CDR-H2 | CDR-H3 | replicates, log10 nM | mean, log10 nM |
|---|---|---|---|---|
| GFHLNSYGIS | VIYSDGRRTYYGDSVK | HRAAGTFDS | ND ND ND | ND |
| GFKLNSYGIS | VIYSDGRRTFYGDSVM | GRAAATFDS | 0.89 1.20 1.09 | 1.06 |
| GFVLNSYGIS | VIYSDGRATFYGDSVK | GRAAGRFDS | ND ND ND | ND |
| GFILNSYGIS | VIYSDGRRTFYGDSVK | GRAASTFDS | ND 4.63 ND | 4.63 |
| GFMLNSYGIS | VIYSDTRRTFYGDSVK | GRAAGTFDS | ND ND ND | ND |
| GFDLNSYGIS | VIYSDGRRYFYGDKVK | GRAAGTFDS | 1.19 1.16 1.69 | 1.35 |
| GFILNSLGNS | VIYSDGRRTFYGDSVK | GRAAGTFDS | ND ND 5.09 | 5.09 |
| NFELNSYGIS | VIYSDGRRTEYGDSVK | GRAAGTFDS | 3.21 2.84 2.63 | 2.89 |
| GFYLNSYGID | VILSDGRRTFYGDSVK | GRAAGTFDS | 3.56 ND 4.19 | 3.87 |
| YFKLNSYGIS | VIWSDGRRTFYGDSVK | GRAAGTFDS | ND ND ND | ND |
| GFFLNSYGIS | VIYSDGRRIFYGDSTK | GRAAGTFDS | 4.14 ND 5.82 | 4.98 |
| PFGLNSYGIS | VIYSDGRRTFYGDSVK | GRAAGTFDS | 2.16 ND ND | 2.16 |
| GFDLNSYGIS | VIYSDGRRTFYGDSFK | GRAAGRFDS | 1.68 2.07 2.22 | 1.99 |
| GFSLSSYGIS | VIYSDGRRTFYGDSVK | GWAAGTFDS | 1.15 1.10 1.11 | 1.12 |
| GFYLNSYGIS | VIYGDGRRTFYGDSVW | GRAAGTFDS | ND ND 4.27 | 4.27 |
| GCPLNSYGTS | VIYSDGRRTFYGDSVK | GRAAGTFDS | ND ND ND | ND |
| GFVLNSYGIS | VIYDDGRRTFYGDSVK | GLAAGTFDS | ND ND 2.94 | 2.94 |
| GFMLNSYGLS | VIYSDGRRTFYGDSVK | GRRAGTFDS | ND ND ND | ND |
| RFDLNSYGIS | VIYSDGRRPFYGDSVK | GRAAGTFDS | ND ND ND | ND |
| GFELNSYGIS | VIYSDGRRLFYGDSVK | GRAAGTFKS | 2.04 1.96 1.64 | 1.88 |
| GFKLNSYGIS | VAYSDGRRTFGGDSVK | GRAAGTFDS | 3.92 3.78 ND | 3.85 |
| GFHLNSYGIS | VIYSDHRRTFYGDSVE | GRAAGTFDS | ND ND ND | ND |
| GFILNSYGIS | VICSDGRRTFYGDSVK | GRAAGTFDS | 3.49 ND 4.43 | 3.96 |
| GFLLNSYGIS | VIYSDGRRCFYGDSVK | GRAAGTFDS | 1.56 1.74 1.48 | 1.59 |
| GFWLNSYGIS | VIYFDGRRTFYGDSVK | GRASGTFDS | ND 1.80 ND | 1.80 |
| GFELNSYGIS | LIYSDGRRTFYGDSVK | GRAAGTFDS | 3.13 2.72 3.20 | 3.02 |
| GFCLNSYGIS | VIYSDGTRTFYGDSVK | GVAAGTFDS | 3.08 2.13 3.10 | 2.77 |
| GFYLNSYGIS | VIYSDARRTFYGDSFK | GRAAGTFDS | 6.08 4.57 4.24 | 4.97 |
| GFQLNSYGIS | VIYSDGRRTFYGDSVK | GRAACCFDS | ND 3.12 ND | 3.12 |
| GFWLNSGGIS | VIYSDGRRTFYGDSVK | GRNAGTFDS | ND ND 4.14 | 4.14 |
| GFNLNSYGIS | VIYSRGRRPFYGDSVK | GRAAGTFDS | ND 4.01 2.15 | 3.08 |
| GFFLNSYGIS | VIYSDGRRNFYGDSVK | GRAAGTFDN | ND 3.19 ND | 3.19 |
| GFELNSYGIS | VIYSDGGRTFYGDSVK | GRCAGTFDS | 2.32 2.49 2.50 | 2.44 |
| GFVLNSYGIS | VIYSDGRRTLAGDSVK | GRAAGTFDS | ND 4.06 ND | 4.06 |
| GFWLNSAGIS | VIYSDGRDTFYGDSVK | GRAAGTFDS | ND 4.13 ND | 4.13 |
| GFYLNSYGIS | VINSIGRRTFYGDSVK | GRAAGTFDS | ND ND ND | ND |
| GFGLNSYGIS | VIYSDGRRTCYGDSVK | GRAAKTFDS | 3.74 3.02 ND | 3.38 |
| GFWLNSYGIS | VIYSDGRRKFYGDSVK | GRAAGTFDS | 2.33 1.59 1.91 | 1.94 |
| GFHLNSYGIS | VIYSDGRRTFYGDIVK | GRAAGTKDS | ND ND ND | ND |
| GFALNSYIIS | VIYSDGRRTFYGDSVK | GRAAGTMDS | ND ND ND | ND |
| GFRLNNYGIS | VIYSHGRRTFYGDSVK | GRAAGTFDS | ND ND ND | ND |

Excerpt, the final 6 entries:

{"CDR-H1": "GFYLNSYGIS", "CDR-H2": "VINSIGRRTFYGDSVK", "CDR-H3": "GRAAGTFDS", "replicates, log10 nM": "ND ND ND", "mean, log10 nM": "ND"}
{"CDR-H1": "GFGLNSYGIS", "CDR-H2": "VIYSDGRRTCYGDSVK", "CDR-H3": "GRAAKTFDS", "replicates, log10 nM": "3.74 3.02 ND", "mean, log10 nM": "3.38"}
{"CDR-H1": "GFWLNSYGIS", "CDR-H2": "VIYSDGRRKFYGDSVK", "CDR-H3": "GRAAGTFDS", "replicates, log10 nM": "2.33 1.59 1.91", "mean, log10 nM": "1.94"}
{"CDR-H1": "GFHLNSYGIS", "CDR-H2": "VIYSDGRRTFYGDIVK", "CDR-H3": "GRAAGTKDS", "replicates, log10 nM": "ND ND ND", "mean, log10 nM": "ND"}
{"CDR-H1": "GFALNSYIIS", "CDR-H2": "VIYSDGRRTFYGDSVK", "CDR-H3": "GRAAGTMDS", "replicates, log10 nM": "ND ND ND", "mean, log10 nM": "ND"}
{"CDR-H1": "GFRLNNYGIS", "CDR-H2": "VIYSHGRRTFYGDSVK", "CDR-H3": "GRAAGTFDS", "replicates, log10 nM": "ND ND ND", "mean, log10 nM": "ND"}

In this assay the parent's reference entry averaged 0.65; its copy inside this library read 4.11 (one replicate of three).
Nonspecific signal, from three strains lacking the peptide, appeared in 15% of pairings of library AAYL49, centred on 4.06 (5% of these signals below 2.83); values are not corrected for it.